Experimental data published in ChEMBL document CHEMBL3797166, “Identification of N-phenyl-2-(N-phenylphenylsulfonamido)acetamides as new RORγ inverse agonists: Virtual screening, structure-based optimization, and biological evaluation” (Eur J Med Chem, 2016).
Calls of active or inactive are those of the source. No cut-off for these calls is given here.

Amino acid sequences for entries named in this document (tags omitted). A change or cut given only in a name is not applied to a line headed by its entry.
UniProt P51449: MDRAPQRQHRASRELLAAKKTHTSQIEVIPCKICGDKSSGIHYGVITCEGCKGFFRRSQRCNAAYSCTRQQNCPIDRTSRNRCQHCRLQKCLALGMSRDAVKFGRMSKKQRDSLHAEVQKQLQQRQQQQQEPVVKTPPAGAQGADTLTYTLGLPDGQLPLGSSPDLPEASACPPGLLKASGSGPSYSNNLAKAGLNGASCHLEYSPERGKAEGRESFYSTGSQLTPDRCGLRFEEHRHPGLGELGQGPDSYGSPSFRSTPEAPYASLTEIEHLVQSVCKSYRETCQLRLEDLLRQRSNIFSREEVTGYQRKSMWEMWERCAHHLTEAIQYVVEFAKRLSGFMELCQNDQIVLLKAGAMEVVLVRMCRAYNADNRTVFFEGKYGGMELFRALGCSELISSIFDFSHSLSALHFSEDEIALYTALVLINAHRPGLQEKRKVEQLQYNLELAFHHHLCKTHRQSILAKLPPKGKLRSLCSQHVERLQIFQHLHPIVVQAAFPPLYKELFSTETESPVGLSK

Target: Nuclear receptor ROR-gamma (Homo sapiens, UniProt P51449)

| ΔTm | deltaTm | SMILES |
| --- | --- | --- |
|  | inactive | COC(=O)c1ccc(CNC(=O)CN(c2cccc(C(F)(F)F)c2)S(=O)(=O)c2ccc(C)cc2)cc1 |
|  | inactive | COC(=O)c1cccc(NC(=O)CN(c2cccc(C(F)(F)F)c2)S(=O)(=O)c2ccc(C)cc2)c1 |

Second part, the compound before the results:

| SMILES | ΔTm | deltaTm |
| --- | --- | --- |
| Cc1ccc(S(=O)(=O)N(CC(=O)Nc2ccc(OC(F)(F)F)cc2)c2cccc(C(F)(F)F)c2)cc1 | 0.9 °C |  |
| CCCCCCNC(=O)CN(c1cccc(C(F)(F)F)c1)S(=O)(=O)c1ccc(C)cc1 |  | inactive |
| Cc1ccc(S(=O)(=O)N(CC(=O)Nc2cccc(C(=O)O)c2)c2cccc(C(F)(F)F)c2)cc1 |  | inactive |
| Cc1ccc(S(=O)(=O)N(CC(=O)Nc2ccc(OCc3ccccc3)cc2)c2cccc(C(F)(F)F)c2)cc1 | 0.25 °C |  |
